This note sets out measurements from ChEMBL document CHEMBL2218924, “A broad activity screen in support of a chemogenomic map for kinase signalling research and drug discovery” (Biochem J, 2013).

Sequences of proteins named here, by UniProt entry; tags and fusion partners are left off. A change or cut given only in a name is not applied to a line headed by its entry.
UniProt P54764, whole entry: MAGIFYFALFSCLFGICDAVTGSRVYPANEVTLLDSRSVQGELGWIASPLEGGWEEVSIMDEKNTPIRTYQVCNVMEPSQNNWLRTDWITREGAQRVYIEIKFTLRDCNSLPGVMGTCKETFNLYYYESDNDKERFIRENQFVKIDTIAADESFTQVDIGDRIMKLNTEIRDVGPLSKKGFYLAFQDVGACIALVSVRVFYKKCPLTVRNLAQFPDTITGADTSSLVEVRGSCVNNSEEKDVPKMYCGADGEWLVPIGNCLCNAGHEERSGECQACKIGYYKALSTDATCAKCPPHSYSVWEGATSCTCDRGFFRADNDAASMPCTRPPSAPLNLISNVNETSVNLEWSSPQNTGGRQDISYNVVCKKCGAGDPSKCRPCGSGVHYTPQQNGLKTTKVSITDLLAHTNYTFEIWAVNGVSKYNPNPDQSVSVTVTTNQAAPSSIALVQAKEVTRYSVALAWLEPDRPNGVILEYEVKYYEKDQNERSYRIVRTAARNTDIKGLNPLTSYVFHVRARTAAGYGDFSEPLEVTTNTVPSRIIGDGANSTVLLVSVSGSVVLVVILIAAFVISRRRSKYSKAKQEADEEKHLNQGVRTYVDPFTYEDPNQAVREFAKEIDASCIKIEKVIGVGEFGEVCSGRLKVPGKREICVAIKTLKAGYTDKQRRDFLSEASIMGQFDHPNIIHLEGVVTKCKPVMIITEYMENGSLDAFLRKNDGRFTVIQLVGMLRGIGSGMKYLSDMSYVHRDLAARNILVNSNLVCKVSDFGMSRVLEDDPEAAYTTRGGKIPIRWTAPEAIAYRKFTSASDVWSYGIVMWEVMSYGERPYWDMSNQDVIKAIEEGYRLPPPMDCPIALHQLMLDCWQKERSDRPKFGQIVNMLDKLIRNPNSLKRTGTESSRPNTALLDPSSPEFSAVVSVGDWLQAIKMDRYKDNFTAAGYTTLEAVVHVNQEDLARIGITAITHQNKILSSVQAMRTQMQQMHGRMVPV
UniProt Q15418, whole entry: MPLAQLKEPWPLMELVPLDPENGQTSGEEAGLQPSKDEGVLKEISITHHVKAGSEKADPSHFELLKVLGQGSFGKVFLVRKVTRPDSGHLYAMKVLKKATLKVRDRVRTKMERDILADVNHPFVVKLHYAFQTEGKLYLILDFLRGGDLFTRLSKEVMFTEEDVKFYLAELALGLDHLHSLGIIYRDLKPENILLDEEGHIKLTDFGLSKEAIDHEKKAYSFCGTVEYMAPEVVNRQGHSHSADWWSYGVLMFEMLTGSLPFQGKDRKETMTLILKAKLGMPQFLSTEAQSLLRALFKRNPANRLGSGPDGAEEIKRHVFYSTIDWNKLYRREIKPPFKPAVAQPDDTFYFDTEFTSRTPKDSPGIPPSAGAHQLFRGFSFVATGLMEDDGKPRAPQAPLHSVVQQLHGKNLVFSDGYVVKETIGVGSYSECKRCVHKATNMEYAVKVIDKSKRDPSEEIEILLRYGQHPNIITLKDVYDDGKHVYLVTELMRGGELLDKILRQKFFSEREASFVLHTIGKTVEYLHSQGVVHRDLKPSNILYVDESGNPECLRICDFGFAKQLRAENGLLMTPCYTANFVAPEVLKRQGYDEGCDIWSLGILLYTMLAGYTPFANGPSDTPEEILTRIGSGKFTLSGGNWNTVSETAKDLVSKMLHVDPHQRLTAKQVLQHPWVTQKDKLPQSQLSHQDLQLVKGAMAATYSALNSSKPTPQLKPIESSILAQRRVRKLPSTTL
UniProt Q9UL54: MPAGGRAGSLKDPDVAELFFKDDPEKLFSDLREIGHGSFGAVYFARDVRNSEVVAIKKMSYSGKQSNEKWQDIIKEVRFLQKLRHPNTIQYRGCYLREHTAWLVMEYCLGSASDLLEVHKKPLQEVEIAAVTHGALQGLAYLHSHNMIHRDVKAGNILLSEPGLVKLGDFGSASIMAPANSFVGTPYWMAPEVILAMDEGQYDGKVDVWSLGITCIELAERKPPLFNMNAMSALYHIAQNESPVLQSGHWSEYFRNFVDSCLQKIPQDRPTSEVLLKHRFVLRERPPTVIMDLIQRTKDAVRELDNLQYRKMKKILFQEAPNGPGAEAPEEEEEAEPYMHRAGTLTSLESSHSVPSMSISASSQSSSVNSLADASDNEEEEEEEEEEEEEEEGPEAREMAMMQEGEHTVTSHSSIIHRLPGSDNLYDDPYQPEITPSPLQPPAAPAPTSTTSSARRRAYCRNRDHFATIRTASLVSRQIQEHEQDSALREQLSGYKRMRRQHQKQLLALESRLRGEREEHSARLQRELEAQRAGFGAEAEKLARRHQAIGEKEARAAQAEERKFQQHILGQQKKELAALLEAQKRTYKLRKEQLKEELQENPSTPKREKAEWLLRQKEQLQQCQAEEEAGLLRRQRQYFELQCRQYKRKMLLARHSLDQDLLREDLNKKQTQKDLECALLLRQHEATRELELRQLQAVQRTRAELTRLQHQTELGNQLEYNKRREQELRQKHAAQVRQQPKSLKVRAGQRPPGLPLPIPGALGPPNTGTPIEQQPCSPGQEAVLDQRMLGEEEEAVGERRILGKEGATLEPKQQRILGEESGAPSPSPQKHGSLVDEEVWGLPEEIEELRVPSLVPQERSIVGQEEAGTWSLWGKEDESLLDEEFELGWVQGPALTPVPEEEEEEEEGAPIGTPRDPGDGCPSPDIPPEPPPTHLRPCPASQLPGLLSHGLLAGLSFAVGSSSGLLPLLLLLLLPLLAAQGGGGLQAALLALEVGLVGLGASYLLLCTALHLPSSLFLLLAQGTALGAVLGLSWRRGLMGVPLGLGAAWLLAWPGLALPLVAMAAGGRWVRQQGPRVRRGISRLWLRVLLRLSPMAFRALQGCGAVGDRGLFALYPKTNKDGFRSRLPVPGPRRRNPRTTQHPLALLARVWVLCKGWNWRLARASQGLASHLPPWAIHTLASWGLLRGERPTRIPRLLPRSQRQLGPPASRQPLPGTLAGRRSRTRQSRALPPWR
UniProt P52564: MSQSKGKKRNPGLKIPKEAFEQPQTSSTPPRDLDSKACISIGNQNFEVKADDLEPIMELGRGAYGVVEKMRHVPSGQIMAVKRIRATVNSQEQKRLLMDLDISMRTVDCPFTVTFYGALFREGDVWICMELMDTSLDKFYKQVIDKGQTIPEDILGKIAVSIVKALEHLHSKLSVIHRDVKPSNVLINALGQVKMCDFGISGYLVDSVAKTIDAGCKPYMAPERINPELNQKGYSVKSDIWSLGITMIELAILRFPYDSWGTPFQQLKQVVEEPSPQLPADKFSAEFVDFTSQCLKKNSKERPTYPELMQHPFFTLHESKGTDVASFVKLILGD
UniProt P07947, whole entry, looked up: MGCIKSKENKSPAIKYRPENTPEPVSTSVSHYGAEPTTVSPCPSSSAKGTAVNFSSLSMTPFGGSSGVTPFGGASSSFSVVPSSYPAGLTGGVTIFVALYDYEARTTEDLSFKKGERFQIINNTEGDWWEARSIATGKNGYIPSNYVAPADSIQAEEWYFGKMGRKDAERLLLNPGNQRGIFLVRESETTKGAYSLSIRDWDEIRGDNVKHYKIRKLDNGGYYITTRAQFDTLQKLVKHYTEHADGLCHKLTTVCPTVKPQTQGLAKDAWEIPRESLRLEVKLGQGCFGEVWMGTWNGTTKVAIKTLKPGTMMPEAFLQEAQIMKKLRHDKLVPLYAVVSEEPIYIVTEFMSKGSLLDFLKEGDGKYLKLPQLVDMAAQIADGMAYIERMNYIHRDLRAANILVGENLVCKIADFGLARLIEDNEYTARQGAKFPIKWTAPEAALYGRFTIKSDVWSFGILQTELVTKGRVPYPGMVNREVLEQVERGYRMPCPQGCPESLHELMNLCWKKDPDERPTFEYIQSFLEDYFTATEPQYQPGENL
UniProt Q96RG2: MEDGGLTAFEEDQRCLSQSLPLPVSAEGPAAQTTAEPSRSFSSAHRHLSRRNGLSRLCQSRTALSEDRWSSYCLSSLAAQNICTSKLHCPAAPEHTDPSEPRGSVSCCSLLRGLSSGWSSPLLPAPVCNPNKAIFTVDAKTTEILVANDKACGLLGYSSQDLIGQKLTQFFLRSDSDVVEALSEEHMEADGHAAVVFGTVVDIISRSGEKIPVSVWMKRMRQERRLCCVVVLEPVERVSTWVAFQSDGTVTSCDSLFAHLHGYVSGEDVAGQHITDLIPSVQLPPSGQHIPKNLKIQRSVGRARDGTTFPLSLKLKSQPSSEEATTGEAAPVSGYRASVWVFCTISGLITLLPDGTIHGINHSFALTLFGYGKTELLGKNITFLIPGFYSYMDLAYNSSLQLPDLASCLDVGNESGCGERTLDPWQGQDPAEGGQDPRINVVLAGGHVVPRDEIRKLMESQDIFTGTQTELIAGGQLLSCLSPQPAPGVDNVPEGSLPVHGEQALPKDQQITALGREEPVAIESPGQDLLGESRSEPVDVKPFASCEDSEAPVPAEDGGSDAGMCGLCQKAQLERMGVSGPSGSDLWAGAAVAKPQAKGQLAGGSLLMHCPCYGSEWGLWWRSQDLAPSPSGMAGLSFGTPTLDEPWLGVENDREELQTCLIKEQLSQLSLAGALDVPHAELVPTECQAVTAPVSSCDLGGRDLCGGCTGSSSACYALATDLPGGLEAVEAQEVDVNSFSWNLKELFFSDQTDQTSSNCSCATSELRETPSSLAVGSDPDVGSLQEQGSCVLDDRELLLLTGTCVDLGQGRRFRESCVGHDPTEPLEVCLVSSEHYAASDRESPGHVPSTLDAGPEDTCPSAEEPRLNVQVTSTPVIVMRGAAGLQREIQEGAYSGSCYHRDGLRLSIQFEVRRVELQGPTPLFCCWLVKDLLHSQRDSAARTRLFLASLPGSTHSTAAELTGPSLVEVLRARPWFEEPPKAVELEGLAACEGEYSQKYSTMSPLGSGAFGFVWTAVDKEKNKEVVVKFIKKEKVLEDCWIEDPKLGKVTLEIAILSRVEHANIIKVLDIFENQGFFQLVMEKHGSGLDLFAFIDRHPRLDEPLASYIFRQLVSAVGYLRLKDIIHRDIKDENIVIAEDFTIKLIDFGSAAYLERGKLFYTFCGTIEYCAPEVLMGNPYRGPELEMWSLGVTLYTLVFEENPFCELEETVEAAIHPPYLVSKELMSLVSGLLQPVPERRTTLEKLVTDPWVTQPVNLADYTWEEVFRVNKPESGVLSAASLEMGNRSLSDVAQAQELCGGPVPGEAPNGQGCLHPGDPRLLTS
UniProt Q9P1W9: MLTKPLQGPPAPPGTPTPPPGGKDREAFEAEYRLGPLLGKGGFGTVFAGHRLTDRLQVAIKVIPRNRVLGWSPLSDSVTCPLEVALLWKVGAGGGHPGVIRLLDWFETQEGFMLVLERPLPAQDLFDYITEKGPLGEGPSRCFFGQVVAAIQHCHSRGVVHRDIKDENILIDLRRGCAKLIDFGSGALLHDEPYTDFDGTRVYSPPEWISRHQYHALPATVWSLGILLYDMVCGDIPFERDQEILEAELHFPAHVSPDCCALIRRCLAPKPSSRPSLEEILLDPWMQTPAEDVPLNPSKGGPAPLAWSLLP
UniProt P53667: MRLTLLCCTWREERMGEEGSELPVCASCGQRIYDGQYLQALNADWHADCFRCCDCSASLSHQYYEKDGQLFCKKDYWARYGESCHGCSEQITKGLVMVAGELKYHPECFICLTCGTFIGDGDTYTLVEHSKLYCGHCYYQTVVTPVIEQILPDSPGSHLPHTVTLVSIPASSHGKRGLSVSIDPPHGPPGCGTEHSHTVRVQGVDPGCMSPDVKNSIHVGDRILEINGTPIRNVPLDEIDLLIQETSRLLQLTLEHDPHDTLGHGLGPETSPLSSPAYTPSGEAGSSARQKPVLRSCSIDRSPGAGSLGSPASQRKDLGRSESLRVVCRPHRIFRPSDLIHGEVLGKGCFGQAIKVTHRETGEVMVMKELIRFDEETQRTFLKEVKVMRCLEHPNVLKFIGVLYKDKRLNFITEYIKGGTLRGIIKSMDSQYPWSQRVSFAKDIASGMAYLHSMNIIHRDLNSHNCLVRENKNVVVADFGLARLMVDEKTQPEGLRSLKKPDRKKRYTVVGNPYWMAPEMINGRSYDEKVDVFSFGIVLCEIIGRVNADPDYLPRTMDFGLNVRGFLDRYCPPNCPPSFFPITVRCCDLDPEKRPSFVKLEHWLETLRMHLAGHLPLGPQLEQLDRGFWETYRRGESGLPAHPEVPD
UniProt Q8TDX7: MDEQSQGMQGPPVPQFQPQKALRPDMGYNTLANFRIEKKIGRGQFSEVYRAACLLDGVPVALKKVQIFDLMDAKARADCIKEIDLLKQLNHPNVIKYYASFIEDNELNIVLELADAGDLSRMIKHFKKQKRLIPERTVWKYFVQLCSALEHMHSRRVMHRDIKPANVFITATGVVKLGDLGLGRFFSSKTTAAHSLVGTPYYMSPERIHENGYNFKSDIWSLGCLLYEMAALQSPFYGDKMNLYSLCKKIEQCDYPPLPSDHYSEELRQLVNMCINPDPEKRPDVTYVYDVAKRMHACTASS

For some of these results: Shown are results outside the selection of strong results, which stands elsewhere. Unless noted, the rule behind the calls is not given here. The list shows a part of the results, in another mix than the full data.

The target in assay [1] is Epidermal growth factor receptor (Homo sapiens) (UniProt P00533). Particulars: at 1 µM.
Assay [2] has the same target. The note with it: at 10 µM.
The target in assay [3] is Ephrin type-A receptor 4 (Homo sapiens) (UniProt P54764). The note with it: at 1 µM.
For assay [4], the target named is Rho-associated protein kinase 1 (Homo sapiens) (UniProt Q13464). Particulars: at 1 µM.
In assay [5] the target is Ribosomal protein S6 kinase alpha-1 (Homo sapiens) (UniProt Q15418). Particulars: at 1 µM.
Assay [6] concerns the target Serine/threonine-protein kinase TAO2 (Homo sapiens) (UniProt Q9UL54). The note with it: at 1 µM.
Assay [7] concerns the target Dual specificity mitogen-activated protein kinase kinase 6 (Homo sapiens) (UniProt P52564). Particulars: at 1 µM.
Assay [8] addresses Hepatocyte growth factor receptor (Homo sapiens) (UniProt P08581). The note with it: at 1 µM.
Assay [9] addresses Tyrosine-protein kinase Yes (Homo sapiens) (UniProt P07947). Particulars: at 1 µM.
The target in assay [10] is T1, Eukaryotic elongation factor 2 kinase (Homo sapiens) (UniProt O00418).
T1 sequence (whole entry): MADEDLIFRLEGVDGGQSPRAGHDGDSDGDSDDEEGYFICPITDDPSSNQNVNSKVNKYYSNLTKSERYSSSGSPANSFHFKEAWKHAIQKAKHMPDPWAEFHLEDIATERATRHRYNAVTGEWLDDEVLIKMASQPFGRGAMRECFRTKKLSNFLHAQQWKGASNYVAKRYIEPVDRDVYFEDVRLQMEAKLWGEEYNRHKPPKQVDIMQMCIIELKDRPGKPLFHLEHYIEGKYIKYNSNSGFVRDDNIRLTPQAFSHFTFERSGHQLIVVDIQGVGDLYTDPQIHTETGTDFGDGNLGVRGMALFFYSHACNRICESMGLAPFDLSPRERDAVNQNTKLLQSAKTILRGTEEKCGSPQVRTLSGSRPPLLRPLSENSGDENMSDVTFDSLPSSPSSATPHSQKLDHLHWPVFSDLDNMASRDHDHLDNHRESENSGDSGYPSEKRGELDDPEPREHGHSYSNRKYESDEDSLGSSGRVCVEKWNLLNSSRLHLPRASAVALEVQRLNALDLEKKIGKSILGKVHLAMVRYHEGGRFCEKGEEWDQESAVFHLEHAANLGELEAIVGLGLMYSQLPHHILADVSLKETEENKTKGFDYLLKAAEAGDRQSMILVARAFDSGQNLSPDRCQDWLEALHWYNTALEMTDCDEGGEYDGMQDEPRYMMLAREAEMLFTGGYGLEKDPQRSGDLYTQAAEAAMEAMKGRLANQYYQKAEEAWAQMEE
The note with it: at 1 µM.

Assay [11] addresses T1, Eukaryotic elongation factor 2 kinase (Homo sapiens). Particulars: at 10 µM.
Assay [12] has as its target Serine/threonine-protein kinase mTOR (Homo sapiens) (UniProt P42345). Particulars: at 1 µM.
Assay [13] addresses PAS domain-containing serine/threonine-protein kinase (Homo sapiens) (UniProt Q96RG2). Particulars: at 1 µM.
Assay [14] has as its target Serine/threonine-protein kinase pim-2 (Homo sapiens) (UniProt Q9P1W9). Particulars: at 10 µM.
The target in assay [15] is LIM domain kinase 1 (Homo sapiens) (UniProt P53667). The note with it: at 1 µM.
Assay [16] has as its target Serine/threonine-protein kinase Nek7 (Homo sapiens) (UniProt Q8TDX7). Particulars: at 10 µM.

As for `Nc1cccc(-c2cc3c(Oc4cccc(O)c4)ncnc3[nH]2)c1`, the residual activity in assay [1] is 0%; in [2], -4%.

With `Cn1nc2c3c(cccc31)C(=O)c1ccccc1-2`, the residual activity in assay [1] worked out at 110%; in assay [2], 118%; in assay [3] it was 120%; in [4], 116%; in assay [5], 114%; in assay [6], 114%. The residual activity is 116% in [7]; 117% in assay [8]; 115% in assay [9]; inactive: 99% in [10]; 78% in assay [11]; 117% in [12]. The residual activity in assay [13] stood at 119%.

With `COc1ccc(S(=O)(=O)N(CCO)c2ccccc2CN(C)C/C=C/c2ccc(Cl)cc2)cc1`, the residual activity was 118% in assay [1], 110% in assay [2], inactive: 106% in [10] and 89% in assay [11].

Turning to `O=c1cc(-c2cccc3c2Sc2ccccc2S3)oc(N2CCOCC2)c1`, the residual activity in assay [1] is 100%; in assay [2] it was 103%; in [10], inactive: 108%; in [11], 90%.

On to `O=C(CCCc1ccc(-c2ccccc2F)cc1)Nc1ccc(O)cc1`, for which the residual activity in assay [1] is 110%; in assay [2], 110%; in assay [10], inactive: 102%.

With `Oc1ccc(-c2nc(-c3ccc(F)cc3)c(-c3ccncc3)[nH]2)cc1`, the residual activity in assay [14] is 107%.

Turning to `COc1cc2ncc(-c3ccccc3)nc2cc1OC`, the residual activity in assay [15] turned out to be 112%.

With `Cc1cccc(-c2[nH]c(C(C)(C)C)nc2-c2ccc3c(c2)OCO3)n1`, the residual activity in assay [10] is inactive: 99%.

In the case of `O=C1NC(=O)c2cc(Nc3ccc(F)cc3)c(Nc3ccc(F)cc3)cc21`, the residual activity in assay [10] was inactive: 84%; in assay [11], 147%.

On to `CO[C@H]1[C@@H](OC)C[C@H](C)[C@@H](OC)C2=CC(=O)C=C(NC(=O)/C(C)=C/C=C/[C@H](OC)[C@@H](OC(N)=O)/C(C)=C/[C@@H]1C)C2=O`, for which the residual activity in [10] was inactive: 120%; in [11], 112%.

With `COc1cc2ncnc(N3CCN(C(=O)Nc4ccc(Oc5ccccc5)cc4)CC3)c2cc1OC`, in [10], the residual activity was inactive: 95%.

As to `Nc1ncnc2c1c(-c1ccc(Oc3ccccc3)cc1)cn2C1CCCC1`, the residual activity in assay [10] was inactive: 87%.

On to `O=C1C(Cl)=C(N2C(=O)CCC2=O)C(=O)c2ccccc21`, for which the residual activity in assay [10] is inactive: 100%; in assay [11], 91%.

`CN(C)CCCn1cc(C2=C(c3c[nH]c4ccccc34)C(=O)NC2=O)c2ccccc21`: the values for the residual activity in assay [10] and in [11] were inactive: 113% and 115%, respectively.

Take `O=C(Nc1cccc(Nc2cc(Nc3cccc(C(F)(F)F)c3)ncn2)c1)C1CC1`: the values for the residual activity in [10] and in [11] were inactive: 93% and 84%, respectively.

In the case of `CO[C@@H]1[C@H](N(C)C(=O)c2ccccc2)C[C@H]2O[C@]1(C)n1c3ccccc3c3c4c(c5c6ccccc6n2c5c31)C(=O)NC4`, the residual activity in [10] was inactive: 83%; in assay [11], 98%.

In the case of `CCOc1cc2ncnc(Nc3cccc(Br)c3)c2cc1OCC`, the residual activity in [10] was inactive: 91%; in [11], 107%.

As for `CCCC(=O)Oc1ccc2[nH]c(C(=O)c3cc4ccccc4[nH]3)cc2c1`, the residual activity in [10] was inactive: 94%.

For `O=c1cc(N2CCNCC2)oc2c(-c3ccccc3)cccc12`, the results for the residual activity in assay [10] and in assay [11] were inactive: 95% and 97%, respectively.

Take `CC(C)(C)c1nc2c3ccc(F)cc3c3c(=O)[nH]ccc3c2[nH]1`: in assay [10], the residual activity is inactive: 81%.

With `c1ccc2c(-c3ccncc3)c[nH]c2c1`, the residual activity in assay [10] is inactive: 86%.

Turning to `N#C/C(=C(/N)SC1C=CC=CC1)c1cccc(C(O)c2ccncc2)c1` (stereo not drawn), the residual activity in [11] turned out to be 88%.

Consider `Cn1cnc2cc3c(Nc4cccc(Br)c4)ncnc3cc21`, for which the residual activity in assay [10] was inactive: 91%; in assay [11] it was 113%.

For the molecule `CC(=O)c1ccc(N2CCOCC2)cc1O`, the residual activity was inactive: 86% in [10] and 105% in assay [11].

For the molecule `CC(C)(C)n1nc(Cc2cccc3ccccc23)c2c(N)ncnc21`, in assay [16], the residual activity is inactive: 111%.

For `CO[C@H]1C[C@@H]2CC[C@@H](C)[C@@](O)(O2)C(=O)C(=O)N2CCCC[C@H]2C(=O)O[C@H]([C@H](C)C[C@@H]2CC[C@@H](O)[C@H](OC)C2)CC(=O)[C@H](C)/C=C(\C)[C@@H](O)[C@@H](OC)C(=O)[C@H](C)C[C@H](C)/C=C/C=C/C=C/1C`, the residual activity in assay [10] was inactive: 111%; in [11], 148%.

With `Cn1sc(=O)n(Cc2ccccc2)c1=O`, the residual activity in [10] was inactive: 96%; in [11], 83%.

On to `CC#CC(=O)Nc1cc2c(Nc3ccc(F)c(Cl)c3)ncnc2cn1`, for which the residual activity in assay [10] is inactive: 101%; in assay [11], 93%.

For the molecule `COc1ccc(-c2cnc3c(-c4ccsc4)cnn3c2)cc1`, the residual activity in assay [10] was inactive: 87%.

Consider `N#C/C(=C\c1ccc(O)c(O)c1)C(=O)NCc1ccccc1`, for which the residual activity in assay [10] is inactive: 83%; in [11] it was 122%.

Consider `Cc1cc2ncc(-c3ccccc3)nc2cc1C`, for which the residual activity was inactive: 86% in assay [10] and 106% in assay [11].

Take `O=C1Nc2ccc(Cl)cc2/C1=C/c1cc(Cl)c(O)c(Cl)c1`: the residual activity in [10] was inactive: 94%; in [11] it was 97%.

Turning to `O=c1cc(N2CCOCC2)oc2c1ccc1ccccc12`, the results for the residual activity in assay [10] and in assay [11] were inactive: 99% and 94%, respectively.

As for `NC(=O)Nc1sc(-c2ccc(F)cc2)cc1C(N)=O`, the residual activity in assay [10] is inactive: 77%; in assay [11], 38%.
